Assays:
Wee1 protein = Wee1 protein (Homo sapiens, UniProt P30291); assay: Binding of compound to Wee1 protein and Tracer 178 by TR-FRET; settings: read-out: IC50 measured value, inhibitory activity against Wee1 kinase
H1299 cells = assay: Anti-proliferative effect by Cell Titer-Glo, H1299; format: cell-based; settings: read-out: IC50 measured value H1299, 3 days
Experimental: (§1) Compound solutions of different concentration gradients were prepared. DMSO was dissolved to a concentration of 10 mM test compound and 10 mM reference compound AZD1775, and the compounds were serially diluted in culture medium for a total of 9 dose points, with 2 parallel replicates set at each concentration. The cell growth group without compound was used as a positive control (maximum signal control) and the medium was used as a negative control (minimum signal control), while ensuring that the final level of DMSO in each reaction well was 0.2%. […]
(§2) The 384-well plates were removed from the cell incubator and allowed to equilibrate for 1 h to room temperature. 25 ul of Cell Titer-Glo assay was added to each well, lysed on a shaker for 2 min and then read out (Luminescence) using a BMG PHERAStar after 10 min incubation. Calculate the inhibition rate from the luminescence signal: first calculate the average of the positive control (maximum signal control) and the negative control (minimum signal control).
(§3) [formula] to calculate the rate of inhibition of the cells by different concentrations of the compounds. The IC50 of the compound on cell activity inhibition was calculated by fitting a log(inhibitor) vs. response-Variable slope model to GraphPad Prism 6. […]

Sequences of proteins named here, by UniProt entry; tags and fusion partners are left off.
UniProt P30291, whole entry: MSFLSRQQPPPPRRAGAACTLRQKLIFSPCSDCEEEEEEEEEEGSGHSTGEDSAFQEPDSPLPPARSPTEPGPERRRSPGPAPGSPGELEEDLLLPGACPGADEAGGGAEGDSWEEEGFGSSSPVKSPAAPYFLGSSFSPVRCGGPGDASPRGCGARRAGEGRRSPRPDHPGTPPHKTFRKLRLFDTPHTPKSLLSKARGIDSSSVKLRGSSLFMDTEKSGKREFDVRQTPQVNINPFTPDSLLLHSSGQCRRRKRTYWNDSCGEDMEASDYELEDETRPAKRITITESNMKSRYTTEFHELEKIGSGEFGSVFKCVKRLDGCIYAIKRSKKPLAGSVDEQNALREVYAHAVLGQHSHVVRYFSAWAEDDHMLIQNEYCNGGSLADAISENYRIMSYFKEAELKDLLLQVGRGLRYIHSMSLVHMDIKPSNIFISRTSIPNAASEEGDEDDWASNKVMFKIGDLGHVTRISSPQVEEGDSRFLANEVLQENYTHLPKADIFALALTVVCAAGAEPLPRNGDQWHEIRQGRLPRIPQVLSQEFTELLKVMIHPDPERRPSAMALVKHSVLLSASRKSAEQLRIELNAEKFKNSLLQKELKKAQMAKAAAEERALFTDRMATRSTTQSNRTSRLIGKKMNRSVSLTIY

MIA Paca-2 cells = assay: Anti-proliferative effect by Cell Titer-Glo, MIA Paca-2; format: cell-based; settings: read-out: IC50 measured value MIA Paca-2, 3 days
Experimental: as §1, §2, §3

| SMILES | IC50 (Wee1 protein) [nM] | IC50 (H1299 cells) [nM] | IC50 (MIA Paca-2 cells) [nM] |
| --- | --- | --- | --- |
| CC(=O)N1CCc2ccc(Nc3ncc4cnn(-c5cccc(N=S(C)(C)=O)n5)c4n3)cc2C1 | 10 to 100 | 1000 to 5000 | – |
| CN1CCN(c2ccc(Nc3ncc4cnn(-c5csc(C(C)(C)O)c5)c4n3)cc2)CC1 | 10 to 100 | 100 to 1000 | 100 to 1000 |

Reference: patent US12649748B2, “Wee1 inhibitor and use thereof” (JIANGSU TASLY DIYI PHARMACEUTICAL CO., LTD., priority 2021, dated 2026)
